In brackets after ≈: the same amount, converted by molar mass.

With `Cc1cc([N+](=O)[O-])cc([N+](=O)[O-])c1O`, the solubility stood at 999 µM (≈ 198 µg/mL).

Source of the values: the OPERA property sets (Mansouri et al. 2018).
